Measured values published in patent US20080318861A1, “Mucosal Delivery of Stabilized Formulations of Exendin” (NASTECH PHARMACEUTICAL COMPANY INC., priority 2005, published 2008).

Test system: normal, human-derived tracheal/bronchial epithelial cells (EpiAirway Tissue Model)
Experiment: MTT cell viability assay
Type: cell-based
Conditions: cell viability as measured by LDH and MTT; exenatide formulation containing the named excipient
From the text: The extraction plate was covered and scaled to reduce evaporation of extractant.

For dodecanoylsucrose, the “toxicity / cell viability in excipient screening (in words)” value was “toxic at 10 mg/mL”.
